Screening results deposited in PubChem BioAssay by Broad Institute.
Wnt bcat act = Wnt/beta-catenin pathway activators, primary screen, cell-based, plate reader, single point | AID 743398, 2014 | Wnt/beta-catenin reporter cell assay, activator | activation, % at 9.35 µM | 300,000 tested, 1.2% active; in the data active = activation above about 30%, passing the limit was not always enough; inconclusive = no clear call, values can overlap the other calls;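 also: 0% = neutral control wells and 100% = positive control wells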
MITF TRPM1 HTS = activators of MITF-driven TRPM1 promoter reporter, primary screen, cell-based, SK-MEL-5, luciferase, single point | SK-MEL-5 TRPM1-promoter luciferase, 24 h; % of positive control, neutral wells = 0 | 300,000 tested, 0.75% active | activation, % at 12.5 µM;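 active = mean activation of at least 80% with every replicate also reaching 80%; inconclusive = mean reaches 80% but some replicate falls short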;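 also: 0% = neutral control wells and 100% = parthenolide positive control wells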
PglD DTNB = C. jejuni PglD acetyltransferase inhibitors, primary screen, biochemical, DTNB colorimetric, single point | UDP-N-acetylbacillosamine N-acetyltransferase PglD (Campylobacter jejuni) | purified PglD enzyme, DTNB colorimetric CoA detection | inhibition, % at 12.5 µM | 360,000 tested, 0.098% active | AID 602405, 2012; in the data active = inhibition above about 16%, passing the limit was not always enough; inconclusive = no clear call, values can overlap the other calls
esBAF inh = Bmi1 luciferase reporter increase in mESCs, primary screen, esBAF inhibitor project, mouse ES cells, Bmi1 luciferase knock-in, single point | 24 h; 100% = twice the neutral-well signal | reporter increase, % at 12.5 µM | 350,000 tested, 2% active | AID 602393, 2012; in the data active = activation above about 40%; inconclusive = no clear call, values can overlap the other calls;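 also: 0% = median of the plate's neutral control wells and 100% = double that signal; a rise in the Bmi1 reporter signal indicates esBAF inhibition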
miR-122 sensor = miR-122 Renilla sensor signal increase in Huh7, primary screen, miR-122 inhibitor project, cell-based, single point, plate reader | Huh7 miR-122 Renilla luciferase sensor, 48 h; neutral wells = 0, positive control = 100 | activation (reporter increase), % at 12.5 µM | 340,000 tested, 0.3% active | AID 602342, 2012;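 active = mean replicate activation score at least 90 and every replicate individually at or above 90; inconclusive = only one of the two criteria met; inactive = neither criterion met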;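 also: higher luciferase means less miR-122 activity so hits act as miR-122 inhibitors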
UUG fidelity = yeast start codon fidelity modulation; AID 602363; activity score, % at 18.7 µM; S. cerevisiae UUG-firefly luciferase reporter, luminescence/redox ratio; 0.13% of 350,000 active;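 active means replicate mean at a twofold rise or more, about +100% in these data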;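 further: firefly luciferase made from a UUG start codon reports start codon fidelity; reporter light over untreated wells divided by growth signal over untreated wells; some hits fall short of that in this replicate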
* = called active by the depositor; ? = inconclusive; nt = not tested or not shown; [ ] = dose if it differs, or a comment. In the library only some 2.8% were active in any assay of this set; here they are far more common.

Structure,Wnt bcat act,MITF TRPM1 HTS,PglD DTNB,esBAF inh,miR-122 sensor,UUG fidelity
C(=N\Nc1nc2ccccc2[nH]1)/c1cccs1,50.8*,58.2,-2.9,67.5*,1.5,-7.0
Cc1nn(-c2ccccc2)c(C)c1/C=N/Nc1nc2ccccc2[nH]1,172.8*,24.9,1.4,-24.7,-26.0,-62.0
C(=N\Nc1nc2ccccc2[nH]1)/c1ccncc1,6.2,14.2,nt,nt,6.2,nt
C=CCn1cc(/C=N/Nc2nc3ccccc3[nH]2)c2ccccc21,53.1*,53.8,nt,nt,nt,nt
Cc1cc(=O)[nH]c(N/N=C/c2c(C)nn(-c3ccccc3)c2C)n1,-1.6,3.8,-3.5,-5.1,-5.7,-7.3
C[C@@H]1CN([C@@H](C)CO)C(=O)CCCn2cc(nn2)CO[C@@H]1CN(C)Cc1ccncc1,nt,nt,nt,0.8,1.5[16.7 µM],nt
C[C@H](CO)N1C[C@H](C)[C@@H](CN(C)S(=O)(=O)c2cn(C)cn2)Oc2c(NC(=O)Nc3cccc4ccccc34)cccc2C1=O,nt,nt,-0.3,-0.9,-0.6[16.7 µM],0.4
C[C@@H]1CN([C@H](C)CO)S(=O)(=O)c2ccc(C#Cc3cccc(F)c3)cc2O[C@H]1CN(C)C(=O)NC1CCCCC1,nt,nt,-2.2,12.5,0.4[16.7 µM],-2.1
O=C(N[C@@H]1CC[C@H](CCNS(=O)(=O)c2ccccc2)O[C@H]1CO)c1cccc(F)c1,nt,nt,0.0,2.3,nt,0.7
COCC(=O)N1[C@@H](CO)[C@@H]2c3ccccc3N(C(=O)C3CC3)C[C@@H]21,nt,nt,0.7,-4.1,-33.3[16.7 µM],-1.1
C(=N\Nc1ncnc2nc[nH]c12)/c1cccs1,61.4*,56.1,-0.9,10.3,-3.5,-22.1
Cc1cc(C)c(S(=O)(=O)NCCc2ccccc2)c(C)c1,-1.7,10.8,nt,nt,nt,nt
Cc1cc(C)c(S(=O)(=O)NCCn2ccc3ccccc32)c(C)c1,1.9,nt,-3.8,-3.5,125.9*,-7.6
CCN(CC)c1ccc(/C=N/NC(=O)OC(C)(C)C)cc1,58.6*,75.7,5.3,69.9*,nt,0.6
CCN(CC)c1ccc(/C=N\NC(N)=O)cc1,2.2,-2.9,-4.1,nt,-12.7,-9.1
O=C(N/N=C/c1cccc(Cl)c1Cl)Nc1ccccc1,-1.9,39.7,5.4,49.9*,-3.5,-8.4
O=C(N/N=C/c1ccc(Cl)cc1Cl)Nc1ccccc1,nt,58.0,-1.9,36.0,13.9,-22.1
CCN(CC)c1ccc(/C=N/NC(=O)Nc2ccccc2)cc1,43.4*,49.6,nt,nt,nt,nt
CCOc1ccc(/C=N/NC(=O)Nc2ccccc2)cc1,13.2,122.0*,nt,nt,nt,nt
CCN(CC)c1ccc(/C=N/NC(=O)CC(C)C)cc1,-1.7,21.3,13.4,12.8,2.6,-10.7
CCOc1ccc(/C=N/NC(=O)CC(=O)NCc2ccccc2)cc1,-2.0,2.5,nt,nt,nt,nt
C[C@@H]1CN([C@@H](C)CO)C(=O)c2cccc(NS(=O)(=O)c3ccc(Cl)cc3)c2O[C@@H]1CN(C)S(=O)(=O)c1cn(C)cn1,nt,nt,nt,-1.4,-1.9[16.7 µM],-7.7
CNC(=O)C[C@H]1CC[C@@H]2[C@@H](COc3ccc(NC(=O)c4ccc(F)cc4)cc3C(=O)N2C)O1,nt,nt,nt,-5.2,-1.4[16.7 µM],-11.0
CCn1c(C(=O)NC2CCC(C)CC2)cc2sccc21 (centres undefined),16.2,91.9*,13.9,51.7*,-2.0,-10.5
Cn1c(C(=O)NC2CCCCC2)cc2sccc21,nt,71.7,-4.0,42.5*,2.7,-18.0
CN(C(=O)c1cc2sccc2n1C)C1CCCCC1,29.5,?,0.8,36.7,0.7,2.5
O=C(C[C@H]1CC[C@@H]2[C@H](COC[C@H](O)CN2Cc2cccc(F)c2)O1)NCc1ccncc1,nt,nt,1.6,1.0,-0.8[16.7 µM],nt
Cc1noc(C)c1NC(=O)N(C)C[C@@H]1Oc2ccc(NC(=O)CCCCCC(=O)Nc3ccccc3N)cc2CC(=O)N([C@H](C)CO)C[C@H]1C,nt,nt,-1.3,3.2,5.1[16.7 µM],3.1
COc1cccc(S(=O)(=O)N[C@@H]2C=C[C@@H](CC(=O)NCc3ccncc3)O[C@H]2CO)c1,nt,nt,-4.2,-2.9,nt,-24.4
C/C=C/c1ccc2c(c1)O[C@H](CN(C)Cc1cccnc1)[C@@H](C)CN([C@H](C)CO)S2(=O)=O,nt,nt,1.1,2.2,29.8[16.7 µM],-11.7

Reprinted at random: 4 records from the list.
Structure,Wnt bcat act,MITF TRPM1 HTS,PglD DTNB,esBAF inh,miR-122 sensor,UUG fidelity
C/C=C/c1ccc2c(c1)O[C@H](CN(C)Cc1cccnc1)[C@@H](C)CN([C@H](C)CO)S2(=O)=O,nt,nt,1.1,2.2,29.8[16.7 µM],-11.7
CCN(CC)c1ccc(/C=N\NC(N)=O)cc1,2.2,-2.9,-4.1,nt,-12.7,-9.1
CCn1c(C(=O)NC2CCC(C)CC2)cc2sccc21 (centres undefined),16.2,91.9*,13.9,51.7*,-2.0,-10.5
Cc1cc(C)c(S(=O)(=O)NCCn2ccc3ccccc32)c(C)c1,1.9,nt,-3.8,-3.5,125.9*,-7.6
